Drawing on publication PMC9518244, “TiO2 nanotube immobilised 5-lipoxygenase-mediated screening and isolation of anti-inflammatory active compounds from the leaves of lonicera japonica thunb” (Journal of Enzyme Inhibition and Medicinal Chemistry, 2022), this text covers binding rate for one compound.

Amino acid sequences for entries named in this document (tags omitted).
UniProt P08170, whole entry: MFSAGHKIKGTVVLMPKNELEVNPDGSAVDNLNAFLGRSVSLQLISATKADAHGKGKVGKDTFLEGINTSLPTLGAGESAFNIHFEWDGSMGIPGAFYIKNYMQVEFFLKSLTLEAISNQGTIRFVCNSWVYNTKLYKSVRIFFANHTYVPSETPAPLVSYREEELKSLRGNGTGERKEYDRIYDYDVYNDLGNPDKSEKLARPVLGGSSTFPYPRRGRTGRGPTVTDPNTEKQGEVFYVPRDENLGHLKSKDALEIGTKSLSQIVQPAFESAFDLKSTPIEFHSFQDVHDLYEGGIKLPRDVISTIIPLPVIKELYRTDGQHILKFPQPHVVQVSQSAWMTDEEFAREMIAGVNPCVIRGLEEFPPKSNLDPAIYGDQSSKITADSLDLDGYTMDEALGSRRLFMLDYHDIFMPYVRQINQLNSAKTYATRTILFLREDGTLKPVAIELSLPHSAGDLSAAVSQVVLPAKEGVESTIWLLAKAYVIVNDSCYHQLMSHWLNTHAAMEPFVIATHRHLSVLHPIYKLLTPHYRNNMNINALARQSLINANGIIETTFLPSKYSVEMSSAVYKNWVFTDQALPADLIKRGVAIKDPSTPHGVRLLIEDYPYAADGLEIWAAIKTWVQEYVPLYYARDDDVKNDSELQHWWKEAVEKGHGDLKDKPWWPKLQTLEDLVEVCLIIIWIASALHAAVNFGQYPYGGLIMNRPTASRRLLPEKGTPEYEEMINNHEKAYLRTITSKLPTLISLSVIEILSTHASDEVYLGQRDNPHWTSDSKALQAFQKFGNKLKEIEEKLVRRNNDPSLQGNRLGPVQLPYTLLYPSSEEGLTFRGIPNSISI

Molecules are shown by their SMILES.

In the assay the target is 5-LOX (Glycine max, UniProt P08170). Put plainly: 5-LOX immobilised on TiO2 nanotubes microreactor screening (HPLC peak area ratio). Type of assay: binding. Particulars: peak area ratio after and before the screening procedure. Here is the method: Glutaraldehyde (GA) was used as crosslinking agent to covalently immobilise 5-LOX on the amino terminated TNTs. The NH2-TNTs was added to GA solution and shaken in a incubator at room temperature (25 °C) for 8 h. The resulting product was labelled GA-TNTs. Then GA-TNTs was merged with Tris-HCl solution (0.1 M, pH 7.0) containing a certain amount of 5-LOX, and the immobilisation was performed in a shaker at 4 °C for a certain time. After that, the immobilised 5-LOX was acquired by centrifuge to remove supernatant and comprehensively rinsed with Tris-HCl buffer solution several times to remove the unimmobilised enzyme. The 5-LOX-TNTs composites were suspended in Tris-HCl solution and stored at 4 °C before use.
The crude extract of leaves of Lonicera japonica Thunb. was added to 5% (v/v) methanol-Tris buffer solution, and dissolved by ultrasonic to prepare an incubation solution with a concentration of about 5.66 mg/mL. Then 25 mg of material immobilised with 5-LOX was combined with 1 mL of incubation solution and incubated at 25 °C for 90 min on a shaker. After incubation, the material was washed with 1 mL of buffer solution for six times. Then 1 mL of 90% (v/v) acetonitrile aqueous solution was used for ultrasonic elution for 10 min. After centrifugation, the supernatant was filtered and analysed by HPLC-MS. […]

As to `CC(Cc1ccc(O)c(O)c1)C(C)Cc1ccc(O)c(O)c1` (stereo not shown) [NDGA, Nordihydroguaiaretic acid, reference compound], the binding rate result is on record as “over 53%”.
